Columns and labels:
[1] = 101.33 kPa, Liquid, Vibrating tube method
[2] = excess molar enthalpy (molar enthalpy of mixing); xn = mol fraction of the nth substance listed; conditions: 308.15 K, 101.32 kPa, Liquid
[3] = xn = mol fraction of the nth substance listed; conditions: 308.15 K, 101.32 kPa, Liquid, Vibrating tube method

OCCOCCOCCOCCO [tetraethylene glycol]
[1]
Conditions	mass density [kg/m3]
298.15 K	1120.09
308.15 K	1112.31

OCCOCCOCCOCCO [tetraethylene glycol] + OCc1ccccc1
Conditions	excess molar enthalpy [kJ/mol]	mass density [kg/m3]
[2], x1 = 0.0244	-0.158	–
[2], x1 = 0.0475	-0.279	–
[2], x1 = 0.0697	-0.366	–
[2], x1 = 0.0908	-0.438	–
[2], x1 = 0.1303	-0.533	–
[2], x1 = 0.1665	-0.592	–
[2], x1 = 0.2305	-0.641	–
[2], x1 = 0.2853	-0.68	–
[2], x1 = 0.3747	-0.708	–
[2], x1 = 0.4734	-0.734	–
[2], x1 = 0.5451	-0.727	–
[2], x1 = 0.6425	-0.672	–
[2], x1 = 0.7056	-0.609	–
[2], x1 = 0.7824	-0.477	–
[2], x1 = 0.8274	-0.386	–
[2], x1 = 0.8778	-0.259	–
[2], x1 = 0.9349	-0.121	–
[3], x1 = 0.0793	–	1044.72
[3], x1 = 0.1126	–	1048.88
[3], x1 = 0.2056	–	1059.34
[3], x1 = 0.2511	–	1063.96
[3], x1 = 0.3592	–	1073.84
[3], x1 = 0.4688	–	1082.58
[3], x1 = 0.5786	–	1090.24
[3], x1 = 0.6885	–	1096.97
[3], x1 = 0.7489	–	1100.31
[3], x1 = 0.8169	–	1103.87
[3], x1 = 0.9226	–	1108.94
[3], x1 = 0.9433	–	1109.85

From the NIST ThermoML archive (doi:10.1021/je0342062)
